Assay results reported in US20230056360A1, “BLOOD-BRAIN-BARRIER SYSTEMS” (priority 2020, published 2023).

Tested on: iBMECs
Experimental: In order to obtain region-specific primary neural cultures, E18 rat embryos were extracted from a pregnant female. Embryos were dissected and several regions of the CNS were separated including cortex, striatum, hippocampus, cerebellum and spinal cord. The regions were enzymatically dissociated into single cells before seeded pre-coated MEA plates and petri dishes, in which they were cultured in Neurobasal medium (Sigma) for two weeks. In order to validate the various primary cell cultures, the cells were stained for the neuronal marker βIII-tubulin and the glial marker GFAP (FIG. 2).
iPSCs were differentiated into iBMECs as previously described. On Day 8 of differentiation, cells were enzymatically dissociated into single cell suspensions and seeded on precoated transwell inserts. 24 hours post seeding, iBMEC inserts were placed on top of primary neural cultures derived from the different CNS regions (FIG. 3) where they were cultured for three additional days.
Fluorescence was measured using a plate reader and calculated into concentrations using a calibration curve with known concentrations. Next, the inventors plotted the chart and extracted the slope for each transwell. Slopes from empty transwells were subtracted from the obtained value and the results were used to calculate the permeability, expressed as 10-5 cm/min.

Rhodamine 1,2,3
differences in permeability between iBMEC monoculture and NVUs of different brain regions: These results were similar to the permeability of the small tracer Rhodamine
